Amino acid sequences for entries named in this document (tags omitted).
UniProt P35372, whole entry, looked up: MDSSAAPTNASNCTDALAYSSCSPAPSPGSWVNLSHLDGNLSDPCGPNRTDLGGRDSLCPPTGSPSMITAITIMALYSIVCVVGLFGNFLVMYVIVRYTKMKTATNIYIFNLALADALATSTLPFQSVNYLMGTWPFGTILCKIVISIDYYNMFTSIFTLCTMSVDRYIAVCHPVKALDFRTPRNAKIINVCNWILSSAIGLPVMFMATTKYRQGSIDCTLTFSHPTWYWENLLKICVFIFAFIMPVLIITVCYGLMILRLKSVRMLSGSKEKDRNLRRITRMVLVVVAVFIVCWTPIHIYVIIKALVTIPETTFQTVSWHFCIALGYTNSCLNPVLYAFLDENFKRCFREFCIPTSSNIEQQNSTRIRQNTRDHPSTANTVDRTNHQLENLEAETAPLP

In paper PMC11324687:

Legend:
human MOR [1] = molecular target: T1, human MOR (Homo sapiens, UniProt P35372); experiment: NanoBiT MOR β-arrestin 2 (βarr2) recruitment assay
human MOR [2] = molecular target: T1, human MOR; experiment: GloSensor cAMP assay (inhibition of forskolin-stimulated cAMP accumulation)

In the case of `CN1CC[C@]23c4c5ccc(O)c4O[C@H]2C(=O)CC[C@H]3[C@H]1C5`, the “Emax (% DAMGO)” value (human MOR [1]; MOR-βarr2, Table 1 values converted with 100%/207%) is reported as 48.3 (46.5-50.2) % DAMGO, the “Emax (% HM)” value (human MOR [1]; MOR-βarr2, separate set of experiments (Table S2-1), n = 3) is reported as 100 (96.5-104) % HM and the “Emax (% HM)” value (human MOR [1]; MOR–βarr2, relative to hydromorphone, 95% CI in parentheses) is reported as 100 (96.3–104) % HM. The “Emax (% DAMGO)” value (human MOR [2]; Table 1 values converted with 100%/105%) was 95.2 (87.4-104) % DAMGO and the “Emax (% HM)” value (human MOR [2]; relative to hydromorphone, 95% CI in parentheses) was 100 (91.8–109) % HM.
